# From patent publication US4225529A, “Compositions containing platinum” (Johnson, Matthey & Co., Limited, priority 1977, dated 1980)
# Assay: solubility
# Type: physicochemical
# Description: The complex was insoluble in hot water, ethanol, aqueous sodium sulphate solution, methanol and acetone. However, the complex was soluble in concentrated sulphuric acid and was recrystallised as follows.
substance,measurement,setting,value
Aquobis(n-butylamine)sulphatoplatinum(II) [Example 7],solubility,concentrated sulphuric acid,soluble
same,solubility,"hot water, ethanol, aqueous sodium sulphate solution, methanol and acetone",insoluble
